From patent US20230346784A1 (priority 2020, published 2023) come the findings set out here.

Common to all, as to format: cell-based, human
For assay [1], the system named is C5b-9 deposition on TF1PIGAnull cells.
The test system of the next assay is TF1PIGAnull cells.
Assay [2] relates to C3c deposition on TF1PIGAnull cells.

“Also recorded” adds a separate entry of the source.

B1: eculizumab (antibody, chains of the INN, looked up)
heavy: QVQLVQSGAEVKKPGASVKVSCKASGYIFSNYWIQWVRQAPGQGLEWMGEILPGSGSTEYTENFKDRVTMTRDTSTSTVYMELSSLRSEDTAVYYCARYFFGSSPNWYFDVWGQGTLVTVSSASTKGPSVFPLAPCSRSTSESTAALGCLVKDYFPEPVTVSWNSGALTSGVHTFPAVLQSSGLYSLSSVVTVPSSNFGTQTYTCNVDHKPSNTKVDKTVERKCCVECPPCPAPPVAGPSVFLFPPKPKDTLMISRTPEVTCVVVDVSQEDPEVQFNWYVDGVEVHNAKTKPREEQFNSTYRVVSVLTVLHQDWLNGKEYKCKVSNKGLPSSIEKTISKAKGQPREPQVYTLPPSQEEMTKNQVSLTCLVKGFYPSDIAVEWESNGQPENNYKTTPPVLDSDGSFFLYSRLTVDKSRWQEGNVFSCSVMHEALHNHYTQKSLSLSLG
light: DIQMTQSPSSLSASVGDRVTITCGASENIYGALNWYQQKPGKAPKLLIYGATNLADGVPSRFSGSGSGTDFTLTISSLQPEDFATYYCQNVLNTPLTFGQGTKVEIKRTVAAPSVFIFPPSDEQLKSGTASVVCLLNNFYPREAKVQWKVDNALQSGNSQESVTEQDSKDSTYSLSSTLTLSKADYEKHKVYACEVTHQGLSSPVTKSFNRGEC
notes: anti-C5 antibody (Alexion pharmaceuticals)
Consider B1, for which, in assay [1], the “C5b-9 deposition induced by S1 and S2” value is on record as “inhibited; also recorded: blocks”; the “S1-induced C5b-9 deposition” value is recorded as “blocking; also recorded: prevented”; the “S2-induced C5b-9 deposition” value is on record as “blocking”. Besides, the “cell killing in the mHam assay induced by S1 and S2” value in the assay with TF1PIGAnull cells is given as “inhibited; also recorded: blocks”. Besides, in assay [2], the “C3c deposition induced by S1 and S2” value is on record as “does not block”; the “S1-induced C3c deposition” value is listed as “but not eculizumab; also recorded: but not C3c accumulation”; the “S2-induced C3c deposition” value is listed as “but not eculizumab”.
